This passage reports solubility results from article PMC6000670, “Dihydropyridines Allosterically Modulate Hsp90 Providing a Novel Mechanism for Heat Shock Protein Co-induction and Neuroprotection” (Frontiers in Molecular Biosciences, 2018).

A short description of this data set: Solubility in buffer. To be noted: 50 mM in 20 mM Tris pH7.5, 1 mM EDTA, 5 mM NaCl.
As for `COC(=O)C1=C(C)N(C)C(CCN2CCOCC2)=C(C(=O)OC)C1c1ccc(C(F)(F)F)cc1` (stereo not drawn) [LA1014], the solubility entry is on record as “soluble”.
`COC(=O)C1=C(CCN(C)C)N(C)C(CCN(C)C)=C(C(=O)OC)C1c1ccc(C(F)(F)F)cc1` [LA1011]: the solubility result is listed as “soluble”.
`COC(=O)C1=C(CCN(C)C)N(C)C(CCN(C)C)=C(C(=O)OC)C1c1cc(F)cc(F)c1` [LA1026]: the solubility entry is on record as “soluble”.
